Experimental data published in US9169252B2 (BRISTOL-MYERS SQUIBB COMPANY, priority 2014, dated 2015).

The chains behind the UniProt entries cited, without tags or fusion partners.
UniProt Q9NWZ3, whole entry: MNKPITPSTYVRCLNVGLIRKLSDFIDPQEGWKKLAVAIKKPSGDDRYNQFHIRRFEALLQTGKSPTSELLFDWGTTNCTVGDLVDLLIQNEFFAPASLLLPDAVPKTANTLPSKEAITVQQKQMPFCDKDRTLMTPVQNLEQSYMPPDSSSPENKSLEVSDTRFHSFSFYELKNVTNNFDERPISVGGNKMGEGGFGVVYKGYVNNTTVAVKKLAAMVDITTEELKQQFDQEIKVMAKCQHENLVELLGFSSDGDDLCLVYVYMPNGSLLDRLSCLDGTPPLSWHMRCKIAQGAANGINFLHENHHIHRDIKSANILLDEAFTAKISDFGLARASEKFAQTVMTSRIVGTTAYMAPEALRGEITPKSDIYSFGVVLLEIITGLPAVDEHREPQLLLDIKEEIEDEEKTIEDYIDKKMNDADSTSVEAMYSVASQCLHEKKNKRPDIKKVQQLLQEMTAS

Assays:
[1] = test system: TLR2 induced IL-6 in peripheral blood mononuclear cells (PBMCs); experiment: PBMC TLR2 Induced IL-6 Assay; assay type: cell-based; conditions: human PBMCs, lipoteichoic acid stimulated, IL-6 by ELISA; for EC50: read-out: Cell EC50
Protocol: PBMC TLR2 Induced IL-6 Assay
Peripheral blood mononuclear cells (PBMCs) were isolated from human blood containing the anti-coagulant EDTA (2.5 mM) by centrifugation over a FICOLL® gradient. PBMCs (250000 cells/well) were cultured in assay media (RPMI with 10% heat inactivated FCS) with compounds for 30 minutes at 37° C. in a 5% CO2 incubator. Following pretreatment with compounds, cells were stimulated for 5 hours with 10 µg/ml lipoteichoic acid (Invivogen, San Diego, Calif.), a TLR2 agonist. At the end of the culture, plates were centrifuged at 1800 rpm for 10 minutes to pellet the cells. Supernatants were harvested and analyzed for IL-6 levels by ELISA (BD Biosciences, San Jose, Calif.).

IRAK4 = IRAK4 (Homo sapiens (Human), UniProt Q9NWZ3); experiment: IRAK4 Inhibition Assay; assay type: biochemical; conditions: read-out: IRAK4 IC50; ATP 500 μM; IRAK4 0.6 nM

Structure (SMILES)	EC50 [1] [nM]	IC50 ([1]; read-out: Cell IC50) [nM]	IC50 (IRAK4) [nM]
Cc1ccc(CNc2cc(-n3ccc4cc(C#N)cnc43)ncc2C(=O)NC[C@@H](F)C(C)(C)O)cn1	346	1300	
CC(C)(O)[C@H](F)CNC(=O)c1cnc(-n2ccc3cc(C#N)cnc32)cc1NC1CCCC(CO)C1 (single isomer, unassigned) [Example 445]	31		1.6
